Assay [1] addresses T1, Tyrosine-protein kinase BTK (Homo sapiens, UniProt Q06187). Kind of assay: Inhibition of Btk in human Ramos cells. Type of assay: cell-based.
Assay [2] concerns the target T1, Tyrosine-protein kinase BTK. Kind of assay: Inhibition of Btk.

Sequences of proteins named here, by UniProt entry; tags and fusion partners are left off. A change or cut given only in a name is not applied to a line headed by its entry.
UniProt Q06187: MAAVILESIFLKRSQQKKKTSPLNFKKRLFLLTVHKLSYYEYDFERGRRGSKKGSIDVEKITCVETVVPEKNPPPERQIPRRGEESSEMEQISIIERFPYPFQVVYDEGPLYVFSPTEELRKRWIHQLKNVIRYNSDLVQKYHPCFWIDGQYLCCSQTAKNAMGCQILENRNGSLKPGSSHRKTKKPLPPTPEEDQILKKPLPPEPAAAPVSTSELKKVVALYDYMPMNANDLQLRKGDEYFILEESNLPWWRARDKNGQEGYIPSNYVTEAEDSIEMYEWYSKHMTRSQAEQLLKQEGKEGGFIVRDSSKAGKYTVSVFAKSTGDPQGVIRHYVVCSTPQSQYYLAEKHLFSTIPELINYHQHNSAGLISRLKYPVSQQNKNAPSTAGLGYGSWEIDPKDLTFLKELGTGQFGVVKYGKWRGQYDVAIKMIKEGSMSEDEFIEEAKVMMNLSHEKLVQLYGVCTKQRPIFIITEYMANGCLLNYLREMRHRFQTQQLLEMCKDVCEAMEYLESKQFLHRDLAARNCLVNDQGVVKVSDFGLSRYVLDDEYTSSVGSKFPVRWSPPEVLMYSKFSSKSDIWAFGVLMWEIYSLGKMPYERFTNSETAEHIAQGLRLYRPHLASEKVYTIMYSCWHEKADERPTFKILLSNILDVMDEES

SMILES strings stand for the structures.

Take `C=CC(=O)Nc1cccc(Nc2nc(Nc3ccc(Oc4ccnc(C(=O)NC)c4)cc3)ncc2F)c1`: the IC50 (as a rule, the concentration that inhibits the measured activity by half) was 1 nM in assay [1] and below 1 nM in assay [2].

The record behind these values is ChEMBL document CHEMBL2216750, “Irreversible protein kinase inhibitors: balancing the benefits and risks” (J Med Chem, 2012).
